{"sequences": {"note": "Chains of the proteins cited; added tags and fusions are not shown.", "UniProt P20272, whole entry": "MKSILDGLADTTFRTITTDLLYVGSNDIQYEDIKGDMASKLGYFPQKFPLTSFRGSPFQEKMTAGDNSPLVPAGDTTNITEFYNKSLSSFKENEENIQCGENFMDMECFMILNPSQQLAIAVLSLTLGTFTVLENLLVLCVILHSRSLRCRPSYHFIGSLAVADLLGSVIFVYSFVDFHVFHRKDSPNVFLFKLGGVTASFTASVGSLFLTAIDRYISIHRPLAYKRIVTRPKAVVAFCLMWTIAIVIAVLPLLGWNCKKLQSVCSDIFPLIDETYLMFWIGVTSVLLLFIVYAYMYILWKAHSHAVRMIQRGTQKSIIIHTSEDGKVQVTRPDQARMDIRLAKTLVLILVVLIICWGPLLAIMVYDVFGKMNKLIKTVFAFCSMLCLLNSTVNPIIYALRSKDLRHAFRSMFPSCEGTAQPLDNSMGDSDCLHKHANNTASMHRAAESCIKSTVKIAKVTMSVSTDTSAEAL"}, "source": "patent US8227620B2", "about": "“Pharmaceutical compounds” (Neuroscienze Pharmaness S.C. A.R.L., priority 2004, dated 2012)", "target": "CB1 receptors (Rattus norvegicus, UniProt P20272)", "experiment": "Antagonism of WIN 55,212-2 induced hypothermia in vivo", "conditions": "WIN 55,212-2 (3 mg/kg) as such", "protocol": "The rectal temperature in the rat was determined by an electronic thermometer inserted at a 2 mm depth. The measurements were carried out on rats acclimated for one hour. The rectal temperature was determined before and after (from 30 to 120 minutes) the i.p. administration of the compound to be tested.\nEach test was repeated on ten animals; the reported results are the average of the results obtained with the ten animals."}
{"smiles": "Cc1c(C(=O)c2cccc3ccccc23)c2cccc3c2n1[C@H](CN1CCOCC1)CO3", "note": "[WIN 55,212-2, reference compound]", "values": [{"measurement": "Body temperature (° C.)", "setting": "0 min from WIN administration", "result": 37.9, "unit": "°C"}, {"measurement": "Body temperature (° C.)", "setting": "15 min", "result": 35.6, "unit": "°C"}, {"measurement": "Body temperature (° C.)", "setting": "30 min", "result": 33.8, "unit": "°C"}, {"measurement": "Body temperature (° C.)", "setting": "60 min", "result": 34.5, "unit": "°C"}, {"measurement": "Body temperature (° C.)", "setting": "90 min", "result": 35.8, "unit": "°C"}, {"measurement": "Body temperature (° C.)", "setting": "120 min", "result": 36.8, "unit": "°C"}]}
